Calls of active or inactive are those of the source. The rule behind the calls is not given here.

The chains behind the UniProt entries cited, without tags or fusion partners. Where a name states a change or a piece, a line headed by the entry shows the natural chain unless it says otherwise.
UniProt P23458: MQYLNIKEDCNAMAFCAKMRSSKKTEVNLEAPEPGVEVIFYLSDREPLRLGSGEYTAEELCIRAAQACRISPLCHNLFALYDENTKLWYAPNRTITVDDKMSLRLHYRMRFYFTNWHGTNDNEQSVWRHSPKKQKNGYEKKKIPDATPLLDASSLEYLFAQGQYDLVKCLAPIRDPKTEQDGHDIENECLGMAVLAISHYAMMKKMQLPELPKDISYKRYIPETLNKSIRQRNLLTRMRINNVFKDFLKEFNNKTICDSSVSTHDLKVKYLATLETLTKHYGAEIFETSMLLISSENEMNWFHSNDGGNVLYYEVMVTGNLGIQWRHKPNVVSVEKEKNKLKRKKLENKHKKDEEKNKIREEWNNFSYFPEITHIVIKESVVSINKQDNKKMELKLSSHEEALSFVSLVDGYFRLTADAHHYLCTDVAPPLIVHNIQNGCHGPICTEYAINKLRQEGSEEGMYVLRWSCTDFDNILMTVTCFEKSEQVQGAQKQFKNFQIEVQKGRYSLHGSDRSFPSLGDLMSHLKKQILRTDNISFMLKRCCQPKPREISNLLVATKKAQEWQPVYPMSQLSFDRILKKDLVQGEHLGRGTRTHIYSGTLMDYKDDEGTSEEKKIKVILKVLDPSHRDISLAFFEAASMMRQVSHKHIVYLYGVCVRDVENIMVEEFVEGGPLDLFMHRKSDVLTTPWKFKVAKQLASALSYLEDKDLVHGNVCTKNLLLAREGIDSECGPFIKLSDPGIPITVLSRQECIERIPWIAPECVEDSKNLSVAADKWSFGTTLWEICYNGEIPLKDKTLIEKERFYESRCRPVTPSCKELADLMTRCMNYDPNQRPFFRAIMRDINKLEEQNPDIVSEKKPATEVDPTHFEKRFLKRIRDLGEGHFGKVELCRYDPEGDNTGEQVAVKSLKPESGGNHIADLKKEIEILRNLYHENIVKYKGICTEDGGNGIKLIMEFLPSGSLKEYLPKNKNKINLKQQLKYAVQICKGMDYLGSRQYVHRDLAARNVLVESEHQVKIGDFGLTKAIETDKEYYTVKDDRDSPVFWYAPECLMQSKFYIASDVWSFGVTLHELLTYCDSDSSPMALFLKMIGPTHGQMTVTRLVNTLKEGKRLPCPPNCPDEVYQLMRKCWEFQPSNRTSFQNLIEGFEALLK
UniProt Q96SW2: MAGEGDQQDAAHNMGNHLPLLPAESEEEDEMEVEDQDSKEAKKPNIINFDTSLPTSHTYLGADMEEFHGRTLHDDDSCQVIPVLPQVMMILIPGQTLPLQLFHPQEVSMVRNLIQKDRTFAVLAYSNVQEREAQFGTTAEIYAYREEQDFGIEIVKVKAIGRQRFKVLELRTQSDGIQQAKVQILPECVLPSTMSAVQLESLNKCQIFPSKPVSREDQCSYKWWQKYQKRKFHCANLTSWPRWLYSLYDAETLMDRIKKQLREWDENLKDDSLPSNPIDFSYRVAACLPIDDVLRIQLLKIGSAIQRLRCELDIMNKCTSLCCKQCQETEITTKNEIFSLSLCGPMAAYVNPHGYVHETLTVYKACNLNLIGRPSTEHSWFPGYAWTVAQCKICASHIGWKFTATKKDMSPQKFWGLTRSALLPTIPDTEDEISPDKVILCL

In this assay the target is Protein cereblon/Tyrosine-protein kinase JAK1 (Homo sapiens) (UniProt P23458+Q96SW2). Description: PROTAC activity at CRBN/JAK1 in HEL cells assessed as JAK1 degradation at 1 uM by Western blotting analysis. It is filed as cell-based. For orientation: Immunoblotting shows a protein as a band on a membrane.

Turning to `N#CCNC(=O)c1ccc(-c2ccnc(Nc3ccc(N4CCOCC4)cc3)n2)cc1` [MOMELOTINIB], the outcome was inactive.

The values are drawn from ChEMBL document CHEMBL5576072, “Discovery of a potent and selective JAK1-targeting PROTAC degrader with anti-tumor activities” (Bioorg Med Chem Lett, 2024).
